Test results reported in patent publication US8829203B2, “3′,6-substituted indirubins and their biological applications” (Centre National de la Recherche Scientifique (CNRS), priority 2008, dated 2014).

Protein sequences, listed by entry. Tags and fused reporters are not part of them.
UniProt Q00535, whole entry: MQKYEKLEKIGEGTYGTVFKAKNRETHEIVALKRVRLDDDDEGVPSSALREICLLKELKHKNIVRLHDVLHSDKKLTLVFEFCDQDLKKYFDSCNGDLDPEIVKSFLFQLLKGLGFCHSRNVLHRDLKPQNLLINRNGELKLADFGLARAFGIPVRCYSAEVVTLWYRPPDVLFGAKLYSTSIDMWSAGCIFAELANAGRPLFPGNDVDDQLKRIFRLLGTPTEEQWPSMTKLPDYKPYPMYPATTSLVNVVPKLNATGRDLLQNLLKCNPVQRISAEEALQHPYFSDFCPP

How the values were obtained:
CDK1/cyclin B = CDK1/cyclin B kinase assay (histone H1, 15 μM ATP); assay type: biochemical, starfish (Marthasterias glacialis); settings: 30° C., 30 min
CDK5/p25 = CDK5/p25 (Homo sapiens, UniProt Q00535); test: CDK5/p25 kinase assay (histone H1, 15 μM ATP); assay type: biochemical; settings: 30° C., 30 min
GSK-3α/β = GSK-3α/β kinase assay (GS-1 substrate, 15 μM ATP); assay type: biochemical, porcine; settings: 30° C., 30 min, read-out: GSK3 IC50

Compound: O=C1Nc2cc(Br)ccc2/C1=C1/Nc2ccccc2/C1=N\OCCN(CCO)CCO [Cpd 9]
IC50 (CDK1/cyclin B): 600 nM

Compound: CN(C)CCO/N=C1/C(=C2/C(=O)Nc3cc(Br)ccc32)Nc2ccccc21 [Cpd 16, (2′Z-3′)-6-Bromoindirubin-3′-[O-(2-dimethylaminoethyl)oxime]Hydrochloride]
IC50 (CDK5/p25): 53 nM

Compound: O=C1Nc2cc(Br)ccc2/C1=C1/Nc2ccccc2/C1=N\OCCN(CCO)CCO [Cpd 20]
IC50 (CDK1/cyclin B): 1000 nM

Compound: CN(C)CCO/N=C1/C(=C2/C(=O)Nc3cc(Br)ccc32)Nc2ccccc21 [Cpd 5, (2′Z-3′E)-6-Bromoindirubin-3′-[O-(2-dimethylaminoethyl)-oxime]]
IC50 (CDK1/cyclin B): 490 nM

Other lines, results leading:

IC50 (CDK1/cyclin B): 400 nM
Compound: O=C1Nc2cc(Br)ccc2/C1=C1/Nc2ccccc2/C1=N\OCCN1CCN(CCO)CC1 [Cpd 24]

IC50 (CDK1/cyclin B): 600 nM
Compound: O=C1Nc2cc(Br)ccc2/C1=C1/Nc2ccccc2/C1=N\OCCN1CCN(CCO)CC1 [Cpd 13]

IC50 (GSK-3α/β): 3.3 nM
Compound: O=C1Nc2cc(Br)ccc2/C1=C1/Nc2ccccc2/C1=N\OCCN1CCNCC1 [Cpd 11, (2′Z-3′E)-6-Bromoindirubin-3′-[O-(2-piperazine-1-ylethyl)oxime]]

IC50 (GSK-3α/β): 1.3 nM
Compound: O=C1Nc2cc(Br)ccc2/C1=C1/Nc2ccccc2/C1=N\OCCN1CCNCC1 [Cpd 22, (2′Z-3′E)-6-Bromoindirubin-3′-[O-(2-piperazine-1-ylethyl)oxime]Dihydrochloride]

Where a name gives a salt, the structure may show the parent alone. Each block holds one molecule with its values, some of them ahead of it.
